Assay results from patent US5385842A, “Anthraquinones as inhibitors of sulfide production from sulfate-reducing bacteria” (E. I. Du Pont de Nemours and Company, priority 1993, dated 1995).

Test system: Desulfovibrio desulfuricans G100A
Conditions: <10 ppm in 2.7% EtOH (not totally soluble at 30 ppm in 8% EtOH before 3x dilution)

Compound: O=C1c2ccccc2C(=O)c2c1cccc2[As](=O)(O)O
- % Inhib. (inhibition of sulfide production): 18.2%
